Our source for the GTP binding activity (percent of control) values is PubChem BioAssay AID758 (NMMLSC, 2007).

The list shows a part of the results, in another mix than the full data. Some tests of the compounds listed are not included; inactive here does not mean inactive elsewhere. Active and inactive are the calls of the source.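 The calls were made as follows: active = fluorescent GTP binding to Rab7 beads changed by at least 20 points from the 100% baseline, either direction, mostly lower; inconclusive = compound itself probably fluorescent, or too few beads counted; inactive = the rest.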

The subject of the assay is Rab7 GTPase wild type (dog), Bodipy-FL-GTP binding. The experiment in a line: modulators of GTP binding to Rab7, primary screen, biochemical, wildtype, multiplex bead flow cytometry (AID 758).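 Also: median green fluorescence of bound Bodipy-FL-GTP per Rab7 bead population.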 The settings on record: GST-Rab7 beads, fluorescent GTP binding, at 10 µM, actives lie on both sides, untreated = 100%, excess cold GTP = 0%.
For `CC(C)N1C(=O)CC2(CCN(CCOC(=O)C(O)(c3ccccc3)c3ccccc3)CC2)C1=O`, the GTP binding activity (percent of control) is inactive: 102%.
Under `O=C(NCC1(N2CCCCC2)CCCCC1)c1cc([N+](=O)[O-])ccc1Cl` stands inactive: 98%.
Under `C=CCN1CCN(CCOC(=O)C(O)(c2ccccc2)c2ccccc2)CC1` stands inactive: 97%; under `CCN1CCCC(OC(=O)C2(O)c3ccccc3C=Cc3ccccc32)C1` (centres undefined), inactive: 97%.
As for `CN(C)C1CCCC1OC(=O)C(O)(c1ccccc1)c1ccccc1` (centres undefined), the figure is inactive: 102%.
For `Cc1ccccc1C(=O)NCC1(N2CCCCC2)CCCCC1`, the GTP binding activity (percent of control) was inactive: 99%.
Under `COc1cccc(C(=O)NCC2(N3CCCCC3)CCCCC2)c1` stands inactive: 105%; under `CN(C)c1cccc(C(=O)NCC2(N(C)C)CCCCC2)c1`, inactive: 100%.
As for `O=C(OC1CN2CCC1CC2)C(CO)(c1ccccc1)c1ccccc1` (centres undefined), the figure is inactive: 99%.
